# Data from BindingDB's records for doi:10.1021/jm00008a008 (Arris Pharmaceutical, 1995).
# Assay: Tested for activity against 5-hydroxytryptamine 1A receptor from bovine hippocampus
smiles,measurement,value
"CCCN1CC[C@H]2c3c(O)cccc3CC[C@@H]21 [(3aS,9bS)-3-Propyl-2,3,3a,4,5,9b-hexahydro-1H-benzo[e]indol-9-ol]",pKi,10.00

# pKi: −log10 of the molar value.
